The values that follow are results of earlier work, collected in US12599665B2, “Gene fusions for control of genetically modified cells” (A2 Biotherapeutics, Inc., priority 2020, dated 2026).

Sequences of proteins named here, by UniProt entry; tags and fusion partners are left off.
UniProt P03372, whole entry: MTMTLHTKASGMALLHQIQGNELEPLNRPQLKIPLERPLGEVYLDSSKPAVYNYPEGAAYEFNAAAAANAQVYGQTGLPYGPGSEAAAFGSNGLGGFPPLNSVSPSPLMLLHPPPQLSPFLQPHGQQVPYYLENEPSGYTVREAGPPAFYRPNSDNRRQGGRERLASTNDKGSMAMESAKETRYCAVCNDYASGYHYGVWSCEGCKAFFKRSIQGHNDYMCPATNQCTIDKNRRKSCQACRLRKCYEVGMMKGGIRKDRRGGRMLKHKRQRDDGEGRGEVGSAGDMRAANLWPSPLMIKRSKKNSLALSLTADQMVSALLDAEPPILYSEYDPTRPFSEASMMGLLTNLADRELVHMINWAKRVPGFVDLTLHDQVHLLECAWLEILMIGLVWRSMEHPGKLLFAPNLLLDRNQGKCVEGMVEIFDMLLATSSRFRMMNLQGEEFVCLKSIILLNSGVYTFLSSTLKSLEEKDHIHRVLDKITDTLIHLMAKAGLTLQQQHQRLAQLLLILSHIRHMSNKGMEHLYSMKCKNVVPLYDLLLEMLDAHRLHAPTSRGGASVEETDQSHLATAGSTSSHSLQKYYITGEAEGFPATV

The data set addresses Estrogen receptor-α (NR3A1) (Homo sapiens, UniProt P03372). The note with it: antagonist, Table 2; cited from earlier work.

On to methyl-piperidino-pyrazole, for which the pKi is 8.6).
